Assay results as given in patent publication US8436183B2, “Synthetic multimerizing agents” (ARIAD Pharmaceuticals, Inc., priority 1994, dated 2013).

By UniProt entry, the sequences of proteins in these tests, tags left out. Where a name states a change or a piece, a line headed by the entry shows the natural chain unless it says otherwise.
UniProt P62942: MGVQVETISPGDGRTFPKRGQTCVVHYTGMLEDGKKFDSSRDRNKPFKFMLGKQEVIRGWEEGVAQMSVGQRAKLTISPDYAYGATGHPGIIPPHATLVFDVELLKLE

Columns and labels:
Format in all cases: cell-based
[1] = biological target: T1, FAS-FKBP fusion (36V FKBP) in HT1080 cells (Homo sapiens, UniProt P62942, F37V); test: Apoptosis Assay: Fas killing (36V, stable); conditions: mean values
T1 construct: fused on or other part: Fas intracellular effector domain (gives the death read-out)

[2] = biological target: T2, FKBP-containing fusion proteins (wt FKBP) (Homo sapiens, UniProt P62942); test: Transcription Assay: activation of transcription (wt; stable); conditions: @ 1000 nM; each value an individual experiment
T2 construct: FKBP domains probably in several copies

[3] = biological target: T3, FAS-FKBP fusion (wt FKBP) in HT1080 cells (Homo sapiens, UniProt P62942); test: Apoptosis Assay: Fas killing (wt, stable); conditions: @ 1000 nM
T3 construct: fused on or other part: Fas intracellular effector domain (gives the death read-out)

CCC(CC)C(=O)N1CCCC[C@H]1C(=O)O[C@H](CCc1ccc(OC)c(OC)c1)c1cccc(OCC(=O)NCCNC(=O)COc2cccc([C@@H](CCc3ccc(OC)c(OC)c3)OC(=O)[C@@H]3CCCCN3C(=O)C(CC)CC)c2)c1 [AP1891]
EC50 [1]: 20 nM | activation of transcription (wt; stable), % @ 1000 [2]: 0% @ 1000 | Fas killing (wt, stable), % @ 1000 [3]: 0% @ 1000
